Reference: patent US20090312349A1, “ANTI-INFLAMMATORY MEDICAMENTS” (priority 2004, published 2009)

The chains behind the UniProt entries cited, without tags or fusion partners. Residues count along the entry.
UniProt Q16539, 1-360 isoform Q16539-2: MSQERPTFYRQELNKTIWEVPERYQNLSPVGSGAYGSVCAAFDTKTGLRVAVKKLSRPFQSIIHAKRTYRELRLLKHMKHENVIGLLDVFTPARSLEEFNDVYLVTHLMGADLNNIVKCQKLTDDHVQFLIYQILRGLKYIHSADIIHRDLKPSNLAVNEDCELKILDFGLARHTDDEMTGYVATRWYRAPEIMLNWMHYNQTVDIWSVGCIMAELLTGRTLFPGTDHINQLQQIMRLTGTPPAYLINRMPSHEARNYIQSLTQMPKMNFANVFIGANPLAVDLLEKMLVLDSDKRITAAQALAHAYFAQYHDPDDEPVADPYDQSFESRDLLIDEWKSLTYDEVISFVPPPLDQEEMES
UniProt Q16539, whole entry: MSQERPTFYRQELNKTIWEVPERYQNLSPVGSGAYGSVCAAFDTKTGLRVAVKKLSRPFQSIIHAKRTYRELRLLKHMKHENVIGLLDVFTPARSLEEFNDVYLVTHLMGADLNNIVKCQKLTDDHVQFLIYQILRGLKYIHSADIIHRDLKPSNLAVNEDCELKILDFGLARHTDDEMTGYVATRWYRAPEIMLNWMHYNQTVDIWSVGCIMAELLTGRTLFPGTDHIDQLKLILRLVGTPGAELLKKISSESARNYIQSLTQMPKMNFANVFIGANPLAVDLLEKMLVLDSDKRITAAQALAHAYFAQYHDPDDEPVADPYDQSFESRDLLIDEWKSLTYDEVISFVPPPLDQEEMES

biological target: phosphorylated p-38-alpha kinase (Homo sapiens, UniProt Q16539); assay: P-38 alpha kinase assay P1; format: biochemical; conditions: Method P1; 2 h pre-incubation before ATP

Row | Compound | IC50
1 | O=C(O)Cc1cccc(-n2nc(-c3ccccc3)cc2NC(=O)Nc2cccc(Cl)c2Cl)c1 [Example 430, 2-(3-(5-(3-(2,3-dichlorophenyl)ureido)-3-phenyl-1H-pyrazol-1-yl)phenyl)acetic acid] | 0.006 µM
2 | O=C(O)Cc1cccc(-n2nc(-c3ccc(F)cc3)cc2NC(=O)Nc2cccc(Cl)c2Cl)c1 [Example 431, 2-(3-(5-(3-(2,3-dichlorophenyl)ureido)-3-(4-fluorophenyl)-1H-pyrazol-1-yl)phenyl)acetic acid] | 0.028 µM
3 | O=C(O)Cc1cccc(-n2nc(-c3cccs3)cc2NC(=O)Nc2cccc(Cl)c2Cl)c1 [Example 435, 2-(3-(5-(3-(2,3-dichlorophenyl)ureido)-3-(thiophen-2-yl)-1H-pyrazol-1-yl)phenyl)acetic acid] | 0.006 µM
4 | CCOC(=O)Cc1ccc(-n2nc(C3CCCC3)cc2NC(=O)Nc2cccc(Cl)c2Cl)cc1 [Example 437, ethyl 2-(4-(3-cyclopentyl-5-(3-(2,3-dichlorophenyl)ureido)-1H-pyrazol-1-yl)phenyl)acetate] | 0.029 µM
5 | O=C(O)Cc1ccc(-n2nc(-c3ccccc3)cc2NC(=O)Nc2cccc(Cl)c2Cl)cc1 [Example 438, 2-(4-(5-(3-(2,3-dichlorophenyl)ureido)-3-phenyl-1H-pyrazol-1-yl)phenyl)acetic acid] | 0.01 µM
6 | O=C(O)Cc1ccc(-n2nc(-c3cccs3)cc2NC(=O)Nc2cccc(Cl)c2Cl)cc1 [Example 442, 2-(4-(5-(3-(2,3-dichlorophenyl)ureido)-3-(thiophen-2-yl)-1H-pyrazol-1-yl)phenyl)acetic acid] | 0.005 µM
7 | COC(=O)Cc1ccc(-n2nc(-c3ccsc3)cc2NC(=O)Nc2cccc(Cl)c2Cl)cc1 [Example 445, methyl 2-(4-(5-(3-(2,3-dichlorophenyl)ureido)-3-(thiophen-3-yl)-1H-pyrazol-1-yl)phenyl)acetate] | 0.01 µM
8 | NC(=O)Cc1cccc(-n2nc(-c3ccc(F)cc3)cc2NC(=O)Nc2cccc(Cl)c2Cl)c1 [Example 448, 1-(1-(3-(2-amino-2-oxoethyl)phenyl)-3-(4-fluorophenyl)-1H-pyrazol-5-yl)-3-(2,3-dichlorophenyl)urea] | 0.027 µM
9 | CC(C(N)=O)c1cccc(-n2nc(-c3ccsc3)cc2NC(=O)Nc2cccc(Cl)c2Cl)c1 (centres unmarked) [Example 453, 1-(1-(3-(1-amino-1-oxopropan-2-yl)phenyl)-3-(thiophen-3-yl)-1H-pyrazol-5-yl)-3-(2,3-dichlorophenyl)urea] | 0.04 µM
10 | O=C(Cc1cccc(-n2nc(-c3ccccc3)cc2NC(=O)Nc2cccc(Cl)c2Cl)c1)NCCO [Example 454, 1-(2,3-dichlorophenyl)-3-(1-(3-(2-(2-hydroxyethylamino)-2-oxoethyl)phenyl)-3-phenyl-1H-pyrazol-5-yl)urea] | 0.014 µM
11 | O=C(Cc1ccc(-n2nc(-c3ccccc3)cc2NC(=O)Nc2cccc(Cl)c2Cl)cc1)NCCO [Example 470, 1-(2,3-dichlorophenyl)-3-(1-(4-(2-(2-hydroxyethylamino)-2-oxoethyl)phenyl)-3-phenyl-1H-pyrazol-5-yl)urea] | 0.025 µM
12 | CN1CCN(C(=O)Cc2ccc(-n3nc(-c4ccccc4)cc3NC(=O)Nc3cccc(Cl)c3Cl)cc2)CC1 [Example 475, 1-(2,3-dichlorophenyl)-3-(1-(4-(2-(4-methylpiperazin-1-yl)-2-oxoethyl)phenyl)-3-phenyl-1H-pyrazol-5-yl)urea] | 0.037 µM
13 | CC(C)(C)c1cc(NC(=O)Nc2cccc(Cl)c2Cl)n(-c2cccc(CN3C(=O)NC(=O)C3=O)c2)n1 [Example 482, 1-(3-tert-butyl-1-(3-((2,4,5-trioxoimidazolidin-1-yl)methyl)phenyl)-1H-pyrazol-5-yl)-3-(2,3-dichlorophenyl)urea] | 0.01 µM
14 | O=C(Nc1cccc(Cl)c1Cl)Nc1cc(-c2ccccc2F)nn1-c1cccc(CO)c1 [Example 485, 1-(2,3-dichlorophenyl)-3-(3-(2-fluorophenyl)-1-(3-(hydroxymethyl)phenyl)-1H-pyrazol-5-yl)urea] | 0.012 µM
15 | O=C(Nc1cccc(Cl)c1Cl)Nc1cc(-c2cccs2)nn1-c1cccc(CO)c1 [Example 486, 1-(2,3-dichlorophenyl)-3-(1-(3-(hydroxymethyl)phenyl)-3-(thiophen-2-yl)-1H-pyrazol-5-yl)urea] | 0.005 µM
16 | CC(Cc1cccc(-n2nc(-c3ccccc3F)cc2NC(=O)Nc2cccc(Cl)c2Cl)c1)C(N)=O (centres unmarked) [Example 489, 1-(1-(3-(3-amino-2-methyl-3-oxopropyl)phenyl)-3-(2-fluorophenyl)-1H-pyrazol-5-yl)-3-(2,3-dichlorophenyl)urea] | 0.066 µM
17 | CC(Cc1cccc(-n2nc(-c3cccs3)cc2NC(=O)Nc2cccc(Cl)c2Cl)c1)C(=O)O (centres unmarked) [Example 490, 3-(3-(5-(3-(2,3-dichlorophenyl)ureido)-3-(thiophen-2-yl)-1H-pyrazol-1-yl)phenyl)-2-methylpropanoic acid] | 0.031 µM
18 | O=C(Nc1ccc(F)c(F)c1F)Nc1cc(-c2cccs2)nn1-c1cccc(CO)c1 [Example 493, 1-(1-(3-(hydroxymethyl)phenyl)-3-(thiophen-2-yl)-1H-pyrazol-5-yl)-3-(2,3,4-trifluorophenyl)urea] | 0.042 µM
19 | CC(C)(C)c1cc(NC(=O)Nc2ccc(F)cc2F)n(-c2cccc(CC(N)=O)c2)n1 [Example 496, 1-(1-(3-(2-amino-2-oxoethyl)phenyl)-3-tert-butyl-1H-pyrazol-5-yl)-3-(2,4-difluorophenyl)urea] | 0.031 µM
20 | CC(C)(C)c1cc(NC(=O)Nc2ccc(F)cc2F)n(-c2ccc(CC(=O)O)cc2)n1 [Example 497, 2-(4-(3-tert-butyl-5-(3-(2,4-difluorophenyl)ureido)-1H-pyrazol-1-yl)phenyl)acetic acid] | 0.018 µM
21 | NC(=O)Cc1cccc(-n2nc(-c3cccs3)cc2NC(=O)Nc2cccc(Oc3cccnc3)c2)c1 [Example 502, 1-(1-(3-(2-amino-2-oxoethyl)phenyl)-3-(thiophen-2-yl)-1H-pyrazol-5-yl)-3-(3-(pyridin-3-yloxy)phenyl)urea] | 0.034 µM
22 | NC(=O)Cc1cccc(-n2nc(C(F)(F)F)cc2NC(=O)Nc2cccc(Oc3cccnc3)c2)c1 [Example 503, 1-(1-(3-(2-amino-2-oxoethyl)phenyl)-3-(trifluoromethyl)-1H-pyrazol-5-yl)-3-(3-(pyridin-3-yloxy)phenyl)urea] | 1.5 µM
23 | C=C1NS(=O)(=O)N(Cc2cccc(-n3nc(C(C)(C)C)cc3NC(=O)Nc3cccc(Cl)c3Cl)c2)C1=O [Example 511, 1-{5-t-butyl-2-[3-(4-methylene-1,1,3-trioxo-[1,2,5]thiadiazolidin-2-ylmethyl)-phenyl]-2H-pyrazol-3-yl}-3-(2,3-dichlorophenyl)-urea] | 0.3 µM
24 | Cc1ccc(NC(=O)Nc2cc(C(C)(C)C)nn2-c2cccc(CC(N)=O)c2)cc1Nc1nccc(-c2cccnc2)n1 [Example 516, 1-(1-(3-(2-amino-2-oxoethyl)phenyl)-3-tert-butyl-1H-pyrazol-5-yl)-3-(4-methyl-3-(4-(pyridin-3-yl)pyrimidin-2-ylamino)phenyl)urea] | 0.015 µM
25 | Cc1ccc(NC(=O)Nc2cc(C(C)(C)C)nn2-c2cccc(CC(=O)NCC(O)CO)c2)cc1Nc1nccc(-c2cccnc2)n1 (centres unmarked) [Example 517, 1-(3-tert-butyl-1-(3-(2-(2,3-dihydroxypropylamino)-2-oxoethyl)phenyl)-1H-pyrazol-5-yl)-3-(4-methyl-3-(4-(pyridin-3-yl)pyrimidin-2-ylamino)phenyl)urea] | 0.025 µM

biological target: T1, phospho p-38 alpha kinase (Homo sapiens, UniProt Q16539); assay: P-38 alpha kinase assay (spectrophotometric, pyruvate kinase/lactate dehydrogenase coupled); format: biochemical; conditions: Table 3; rates at […] to 2 h
T1 construct: purchased Panvera
Method: In this assay, the oxidation of NADH was continuously measured spectrophometrically. […] The reaction was initiated by adding ATP. The absorption at 340 nm was monitored continuously for up to 4 hours at 30° C. on Polarstar Optima plate reader (BMG). The kinase activity (reaction rate) was calculated from the slope at the time frame from 1.5 h to 2 h.
For inhibition determinations, test compounds were incubated with the reaction mixture for ˜5 min before adding ATP to start the reaction. […] IC50 values were calculated from a series of % inhibition values determined at a range of concentrations of each inhibitor using Prism to process the data and fit inhibition curves. Generally, the rates obtained at the time frame of 1.5 h to 2 h were used for these calculations.

Row | IC50 | Compound
26 | 28 nM | CC(C)(C)c1cc(NC(=O)Nc2cccc3ccccc23)n(-c2cccc(CCN3CCOCC3)c2)n1 [Example 196]
27 | 243 nM | CC(C)(C)c1cc(NC(=O)Nc2ccc(Cl)cc2)n(-c2cccc(CCN3CCOCC3)c2)n1 [Example 197, 1-{3-tert-butyl-1-[3-(2-morpholinoethyl)phenyl]-1H-pyrazol-5-yl}-3-(4-chlorophenyl)urea]
28 | 684 nM | CCOC(=O)c1cccc(-n2nc(C(C)(C)C)cc2NC(=O)Nc2ccccc2F)c1 [Example 199, ethyl 3-(3-t-butyl-5-[3-(2-fluorophenyl)ureido]-1H-pyrazol-1-yl)benzoate]
29 | 29 nM | CCOC(=O)Cc1ccc(-n2nc(C(C)(C)C)cc2NC(=O)Nc2ccccc2F)cc1 [Example 201, 2-(4-(3-t-butyl-5-(3-(2-fluorophenyl)ureido)-1H-pyrazol-1-yl)-phenyl)acetate]
30 | 1900 nM | CCOC(=O)Cc1ccc(-n2nc(C(C)(C)C)cc2NC(=O)Nc2cccc(F)c2F)cc1 [Example 202, ethyl 2-(4-(3-t-butyl-5-(3-(2,3-difluorophenyl)ureido)-1H-pyrazol-1-yl)phenyl)acetate]
31 | 328 nM | CC(C)(C)c1cc(NC(=O)Nc2ccccc2F)n(-c2ccc(CC(=O)O)cc2)n1 [Example 203, 2-(4-(3-t-butyl-5-(3-(2-fluorophenyl)ureido)-1H-pyrazol-1-yl)phenyl)acetic acid]
32 | 33 nM | COc1cccc(-n2nc(C(C)(C)C)cc2NC(=O)Nc2cccc(F)c2)c1 [Example 207, 1-(3-t-butyl-1-(3-methoxyphenyl)-1H-pyrazol-5-yl)-3-(3-fluorophenyl)urea]
33 | 11000 nM | COc1cccc(-n2nc(C)cc2NC(=O)Nc2cccc(Br)c2)c1 [Example 234, 1-(3-bromophenyl)-3-(1-(3-methoxyphenyl)-3-methyl-1H-pyrazol-5-yl)urea]
34 | 1950 nM | CC(C)(C)c1cc(NC(=O)Nc2cccc(C(F)(F)F)c2)n(-c2cccc(CN)c2)n1 [Example 284, 1-{1-[3-(aminomethyl)phenyl]-3-t-butyl-1H-pyrazol-5-yl}-3-(3-(trifluoro-methyl)phenyl)urea]
35 | 102 nM | COc1cccc(NC(=O)Nc2cc(C(C)(C)C)nn2-c2cccc(CN)c2)c1 [Example 285, 1-{1-[3-(aminomethyl)phenyl]-3-t-butyl-1H-pyrazol-5-yl}-3-(3-methoxy-phenyl)urea]
